The source of these data is ChEMBL document CHEMBL4819101, “Design, synthesis and molecular docking studies of thymol based 1,2,3-triazole hybrids as thymidylate synthase inhibitors and apoptosis inducers against breast cancer cells” (Bioorg Med Chem, 2021).

The structures appear in SMILES notation.

The experiment has as its system MDA-MB-231. The experiment is described as follows: Potency index, ratio of 5-fluorouracil IC50 to test compound IC50 for cytotoxicity against human MDA-MB-231 cells assessed as cell growth inhibition incubated for 72 hrs by MTT assay. The format is functional. A general note: Tetrazolium dyes change colour on reduction, which living cells bring about.

For the compound `Cc1ccc(C(C)C)c(OCc2cn(-c3ccccc3C)nn2)c1`, the “Ratio IC50” value stood at 2.4.
